Test results: patent EP1586565A1 (dated 2000)

Chains of the proteins cited; added tags and fusions are not shown. Residues count along the entry.
UniProt P08709, 61-212 limits assumed: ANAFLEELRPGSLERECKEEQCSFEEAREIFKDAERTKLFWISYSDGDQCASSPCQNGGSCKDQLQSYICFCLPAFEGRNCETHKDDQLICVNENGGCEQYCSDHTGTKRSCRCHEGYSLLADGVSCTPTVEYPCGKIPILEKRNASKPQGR
UniProt P08709, 213-466 limits assumed: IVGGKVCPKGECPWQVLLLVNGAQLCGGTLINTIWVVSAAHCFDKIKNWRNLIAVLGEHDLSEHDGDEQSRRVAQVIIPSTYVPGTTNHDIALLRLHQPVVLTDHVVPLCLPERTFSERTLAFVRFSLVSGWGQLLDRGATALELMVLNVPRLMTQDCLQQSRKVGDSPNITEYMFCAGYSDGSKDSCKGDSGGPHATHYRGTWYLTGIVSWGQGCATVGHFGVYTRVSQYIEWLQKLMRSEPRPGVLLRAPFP
UniProt P00761, 9-231: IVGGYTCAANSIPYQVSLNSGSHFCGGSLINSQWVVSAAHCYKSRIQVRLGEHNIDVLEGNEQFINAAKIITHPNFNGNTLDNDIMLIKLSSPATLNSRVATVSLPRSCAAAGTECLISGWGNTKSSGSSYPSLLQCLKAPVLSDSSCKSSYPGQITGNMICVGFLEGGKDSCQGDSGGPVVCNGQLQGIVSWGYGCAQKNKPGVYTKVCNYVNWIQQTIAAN

Columns and labels:
TF-VIIa = TF-VIIa (Homo sapiens, UniProt P08709); assay: TF-VIIa Assay
Trypsin = Trypsin (Sus scrofa, UniProt P00761); assay: Trypsin Assay

% Inhibition TF-VIIa (100 µM) (TF-VIIa): 14%
% Inhibition Trpysin II (100 µM) (Trypsin): 11%
Compound: O=C(Cn1c(-c2ccc(-c3ccccc3)cc2)c(Cl)nc(NCCc2ccccc2)c1=O)NCCc1cccnc1 [Example E-0113]
